Hits are enriched below; roughly 16% of the tested compounds scored in any of these assays.
uPA generation: cell surface uPA generation inhibition. Potency, µM (titrated, usually from 38.3 µM), for inactives: top-dose activity change, negative = inhibition, most hits filed as inhibitors. 330,000 compounds, 0.31% hits. cell surface uPA generation assay, qHTS. AID 540303; active means well fitted inhibition curve with a large enough effect; inconclusive means small, poorly fitted or top-dose-only effect; inactive means no such curve, though single readings can be large or run the other way; tested in mouse RAW 264.7 cells; further: potency means the concentration at half of the fitted maximal effect; on the % scale 0 is the no-effect control and ±100 the full control effect; nearly all actives have a fitted effect of over 55% in size
miR-21 FLuc: miR-21 reporter, rising signal | AID 2288 | HeLa miR-21 FLuc reporter, luciferase, 48 h | 340,000 tested, under 10 active | Potency, µM (titrated, usually from 38.3 µM), for the others: at the top dose reporter change, positive = more light; active = well fitted rising curve with a large enough effect; inconclusive = small, poorly fitted or top-dose-only effect; inactive = no such curve, though single readings can be large or run the other way;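 also: % of control where 0% means no effect; miR-21 action dims this reporter so a rising signal means less miR-21 action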
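HeLa cells endogenously expressing miR-21, stably carrying CMV-driven firefly luciferase with a downstream miR-21 binding site, 2000 cells/well. Titrations up to approximately 40 uM, 48 hours; luciferase luminescence read.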
DT40 TDP1 no CPT: qHTS for Inhibitors of human tyrosyl-DNA phosphodiesterase 1 (TDP1): qHTS in cells in absence of CPT; DT40 Tdp1-/- hTDP1 cells, no CPT, ATP luminescence, 48 h; Potency, µM (titrated, usually from 46.2 µM), inactives show top-dose activity change, negative = growth inhibition, most hits filed as inhibitors; 420,000 compounds, 15% hits; AID 686978, 2013; further: potency means the concentration at half of the fitted maximal effect; on the % scale 0 is the no-effect control and ±100 the full control effect; nearly all actives have a fitted effect of over 55% in size
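No-CPT arm: Tdp1-/-;hTDP1 DT40 cells (400/well) plus compounds, incubated ≥48 hr at 37 °C. Readout CellTiter-Glo luminescence.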
DT40 TDP1 CPT: DT40-hTDP1 cell growth loss with CPT; chicken DT40 Tdp1-/-;hTDP1 cells + 20 nM CPT, ATP luminescence, 48 h; Potency, µM (titrated, usually from 46.2 µM), inactives show at the top dose activity change, negative = growth inhibition, most hits filed as inhibitors; 420,000 compounds, 12% hits; AID 686979; further: potency means the concentration at half of the fitted maximal effect; on the % scale 0 is the no-effect control and ±100 the full control effect; nearly all actives have a fitted effect of over 55% in size
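Chicken DT40 Tdp1-/- cells stably complemented with human TDP1 were seeded at 400 cells/well in medium containing 20 nM camptothecin, exposed to pin-transferred compounds, and grown at 37 °C for at least 48 hr. Viability was read as ATP luminescence.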
TDP1 block: blocks human tyrosyl-DNA phosphodiesterase 1 | Potency, µM (top dose mostly 130 µM), without a hit: top-dose activity change, negative = inhibition, usual class: inhibitors | recombinant TDP1, AlphaScreen DNA substrate cleavage | 350,000 compounds, 0.28% hits | Q9NUW8; further: potency means the concentration at half of the fitted maximal effect; on the % scale 0 is the no-effect control and ±100 the full control effect; nearly all actives have a fitted effect of over 40% in size
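Recombinant E. coli-expressed Tdp1 (1 nM) preincubated with compound 15 min at RT, then 5'-biotin/3'-phosphotyrosine-FITC DNA substrate (15 nM) added for 5 min. AlphaScreen beads (10 ug/ml) added, 10 min RT; tyrosine-FITC cleavage read as signal loss.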
Numbers without * were called inactive; ? = inconclusive; . = not tested or not shown. Unless noted, the call rests on the fitted dose curve; in most records, active means well fitted curve in the direction sought with a large enough effect; inconclusive means small, poorly fitted or top-dose-only effect, or another doubt; inactive means no such curve, though single readings can be large; an effect the other way counts as inactive or inconclusive.

No. | Structure | uPA generation | miR-21 FLuc | DT40 TDP1 no CPT | DT40 TDP1 CPT | TDP1 block
1 | CC(C)c1ccc(NC(=O)C2Cc3ccccc3N2C(=O)c2ccccc2)cc1 (stereo not drawn) | . | 3.8% | 5.8µM* | 18.4µM* | 3.8%
2 | Nc1ccc2c(c1)C(=O)c1cc(N)c(Cl)cc1-2 | -9.4% | . | -18.8% | 2.2% | .
3 | CCOC(=O)N1CCN(C(=O)c2ccc3[nH]c(C)c(C)c3c2)CC1 | 5.6% | . | -26.9% | -22.7% | 4.2%
4 | Cc1ccc(C)c(N2CCN(C(=O)c3ccc4nsnc4c3)CC2)c1 | -16.7% | 25.1% | 13µM* | 11.6µM* | 5.3%
5 | Cc1ccc(C)c(N2CCN(C(=O)c3ccc4[nH]c(C)c(C)c4c3)CC2)c1 | . | 18.1% | 11.6µM* | 11.6µM* | 10.5%
6 | O=C(c1ccc2nsnc2c1)N1CCN(c2ccc([N+](=O)[O-])cc2)CC1 | ? | -1.3% | 20.6µM* | 20.6µM* | 4.6%
7 | Cc1ccc(C)c(N2CCN(C(=O)c3cc4ccccn4n3)CC2)c1 | 0.6% | -20.4% | 23.1µM* | ? | -7.9%
8 | Cc1oc(-c2ccccc2F)nc1CSCC(=O)NCc1ccccc1 | . | 1.8% | ? | ? | 9.2%
9 | O=C(NCCC1CCCCN1S(=O)(=O)c1ccccc1)C(=O)NCc1ccco1 (stereo not drawn) | 1.3% | . | -27.1% | ? | .
10 | CCOc1ccc(Cl)cc1S(=O)(=O)n1nnc2ccccc21 | -2.4% | -3.9% | ? | 16.4µM* | -4.7%
11 | N#Cc1cccc(NC(=O)N2CC[C@@]3(CCCN(S(=O)(=O)c4ccccc4)C3)C2)c1 | . | . | 20.6µM* | ? | .
12 | CS(=O)(=O)N1CCC2(CCCN(C(=O)Nc3cccc(C#N)c3)C2)CC1 | . | . | 0.3% | -0.5% | .
13 | O=S(=O)(c1ccccc1)N1CCC[C@@]2(CCN(c3ccncc3)C2)C1 | . | . | 18.4µM* | ? | .
14 | CCCN1CCN(C(=O)c2c(Cl)cnn2C)CC1 | -4.5% | -4.3% | 10.8% | -7.3% | -0.9%
15 | CCN(CC)c1ccc(NC(=O)COC(=O)C23CCC(=O)N2c2ccccc2S3)cc1 (stereo not drawn) | 5.8% | -4.2% | -13.6% | -18.2% | 11.6%
16 | Cc1c(C(=O)NCc2ccccc2)c(-c2ccccc2)nn1-c1ccccc1 | . | 4.9% | ? | 23.1µM* | 5.6%
17 | Cc1nn(-c2ccccc2)c(-n2cccc2)c1C(=O)NCc1ccccc1Cl | . | ? | 25.9µM* | 20.6µM* | 2.5%
18 | COc1cccc(NC(=O)c2c(C)nn(-c3cccc(C)c3)c2-n2cccc2)c1 | . | 17.2% | ? | ? | 2.6%
19 | Cc1c(C(=O)NC(C)C)c(-c2ccccc2)nn1-c1ccccc1 | 29.0% | -10.6% | -19.7% | -4.7% | 0.0%
20 | COc1cccc(CNC(=O)c2c(C)nn(-c3cccc(C)c3)c2-n2cccc2)c1 | . | 0.7% | 14.6µM* | ? | -5.3%
21 | Cc1nn(-c2ccccc2)c(-n2cccc2)c1C(=O)N1CCN(c2ccccc2)CC1 | . | 14.8% | 23.1µM* | ? | 0.0%
22 | Cc1nn(CC(=O)NCc2ccc(OC(C)C)cc2)c(=O)c2c(C)n(-c3ccc(Cl)cc3)nc12 | . | -1.7% | ? | ? | 8.1%
23 | C=CCOc1c(CNc2ncn[nH]2)cccc1OC | -2.8% | -0.4% | 14.8% | 4.4% | 3.1%
24 | COCC(C)Nc1ncnc2c1cnn2-c1cccc(Cl)c1 (stereo not drawn) | . | -36.7% | ? | ? | -2.6%
25 | Cc1nn(-c2ccccc2)c(-n2cccc2)c1C(=O)NCCc1ccc(Cl)cc1 | . | -2.0% | ? | 20.6µM* | 2.5%

Shown with values under each structure: part of the list above
Below each compound: uPA generation	miR-21 FLuc	DT40 TDP1 no CPT	DT40 TDP1 CPT	TDP1 block
(21) Cc1nn(-c2ccccc2)c(-n2cccc2)c1C(=O)N1CCN(c2ccccc2)CC1
  .	14.8%	23.1µM*	?	0.0%
(1) CC(C)c1ccc(NC(=O)C2Cc3ccccc3N2C(=O)c2ccccc2)cc1 (stereo not drawn)
  .	3.8%	5.8µM*	18.4µM*	3.8%

More structures.
No. | Structure | uPA generation | miR-21 FLuc | DT40 TDP1 no CPT | DT40 TDP1 CPT | TDP1 block
26 | C/C(=N\NC(=S)NCCc1ccccc1)c1ccc(C)cc1 | -3.8% | -1.7% | 18.4µM* | ? | 0.0%
27 | C/C(=N\NC(=S)NCCc1ccccc1)c1ccc(C#N)cc1 | . | 4.0% | 13µM* | ? | 3.5%
28 | C/C(=N\NC(=S)NCCc1ccccc1)c1ccc(Cl)cc1 | -0.1% | 6.0% | ? | ? | 2.8%
29 | S=C(NCCc1ccccc1)NN=C1CCCCCC1 | 3.9% | -49.9% | 0.1% | 12.4% | 0.0%
30 | COc1ccc(NC(=O)CN(C)C(=O)CNC(=O)Cc2cccc3ccccc23)cc1 | -0.6% | -4.4% | -25.3% | -26.4% | 2.4%
31 | CCc1ccc(N(CC(=O)NC2CCCC2)C(=O)CCC(=O)Nc2cc(C)on2)cc1 | -1.6% | -7.1% | ? | ? | 9.5%
32 | CC1=NN(Cc2ccccc2)C(=O)C1 | -3.1% | -3.4% | -8.6% | -16.2% | 0.6%
33 | CC(C)CNc1cc(NC2CCCCC2)c2c3c(onc13)-c1ccccc1C2=O | . | 9.8% | ? | ? | 14.1%
34 | COCCNc1cc(N2CCN(C3CCCCC3)CC2)c2noc3c2c1C(=O)c1ccccc1-3 | . | 5.4% | 16.4µM* | 18.4µM* | 6.4%
35 | CN(C)CCCNc1cc(N2CCN(C3CCCCC3)CC2)c2noc3c2c1C(=O)c1ccccc1-3 | . | ? | 20.6µM* | 23.1µM* | 11.5%
36 | O=C1c2ccccc2-c2onc3c(Br)cc(NC4CCCCC4)c1c23 | . | -1.6% | -11.2% | -9.2% | 3.8%
37 | CCN(CC)c1nc2ccccc2c(N)c1-c1ccccc1 | -12.0% | 27.8% | 20.6µM* | 13µM* | -3.8%
38 | O=C(Nc1cccc(F)c1)N1CCc2nc(NCc3cccc(Oc4ccccc4)c3)ncc2C1 | . | . | 14.6µM* | ? | .
39 | CC(C)c1ccc(NC(=O)N2CCc3nc(NCc4cccc(Oc5ccccc5)c4)ncc3C2)cc1 | . | . | 16.4µM* | ? | .
40 | COc1ccccc1Nc1ncc2c(n1)CCN(CC(C)C)C2 | . | -66.4% | ? | ? | -1.2%
41 | CC(C)c1ccc(NC(=O)N2CCc3ccccc3C2)cc1 | -0.3% | -45.7% | ? | ? | 0.0%
42 | COc1cc(Nc2ncc3c(n2)CCN(C(=O)Nc2ccc(C(C)C)cc2)C3)cc(OC)c1OC | . | . | 11.6µM* | ? | .
43 | Cc1cccc(COc2ccccc2C(=O)NC2CCC(O)CC2)c1 (stereo not drawn) | -6.0% | . | ? | ? | .
44 | Cn1c(=O)cc(SCC(=O)NCc2ccc(F)cc2)c2ccccc21 | -13.3% | 19.2% | 11.6µM* | ? | -1.1%
45 | Cn1c(=O)cc(OCCCC(=O)Nc2ccc(F)cc2)c2ccccc21 | . | -4.4% | 14.6µM* | 13µM* | 6.9%
46 | Cn1c(=O)cc(SCC(=O)NCc2ccc(F)cc2)c2ccc(Cl)cc21 | . | 2.5% | 3.26µM* | 2.59µM* | -4.7%
47 | O=C(NC1CCN(S(=O)(=O)c2ccccc2)CC1)c1ccc(F)cc1 | 3.7% | -0.3% | -10.9% | -4.3% | .
48 | COc1cc(Cl)c(C)cc1NC(=O)c1ccccc1NC(=O)CN1CCN(c2ccccn2)CC1 | 5.3% | . | 25.9µM* | 18.4µM* | .
49 | O=C(CN1CCN(c2ccccn2)CC1)Nc1ccc([N+](=O)[O-])cc1C(=O)Nc1ccccc1F | -8.4% | 9.1% | 7.31µM* | 23.1µM* | 4.3%
50 | Cc1cc(Br)ccc1NC(=O)CN1CCN(c2ccccn2)CC1 | 12.1% | -6.2% | -25.4% | -9.4% | .
51 | CSc1ccccc1NC(=O)CN1CCN(c2ccccn2)CC1 | -9.8% | -0.8% | ? | 23.1µM* | .

Of the compounds above, these contain an aryl thioether with sulfur outside any ring:
No. | Structure | uPA generation | miR-21 FLuc | DT40 TDP1 no CPT | DT40 TDP1 CPT | TDP1 block
44 | Cn1c(=O)cc(SCC(=O)NCc2ccc(F)cc2)c2ccccc21 | -13.3% | 19.2% | 11.6µM* | ? | -1.1%
46 | Cn1c(=O)cc(SCC(=O)NCc2ccc(F)cc2)c2ccc(Cl)cc21 | . | 2.5% | 3.26µM* | 2.59µM* | -4.7%
51 | CSc1ccccc1NC(=O)CN1CCN(c2ccccn2)CC1 | -9.8% | -0.8% | ? | 23.1µM* | .
